Assay results reported in patent US20260382616A1, “TREATMENT METHODS FOR SUBJECTS WITH NON-SMALL CELL LUNG CANCER HAVING AN ABERRATION IN EGFR” (published 2026).

By UniProt entry, the sequences of proteins in these tests, tags left out. Residues count along the entry.
UniProt P00533, 25-1210 limits assumed: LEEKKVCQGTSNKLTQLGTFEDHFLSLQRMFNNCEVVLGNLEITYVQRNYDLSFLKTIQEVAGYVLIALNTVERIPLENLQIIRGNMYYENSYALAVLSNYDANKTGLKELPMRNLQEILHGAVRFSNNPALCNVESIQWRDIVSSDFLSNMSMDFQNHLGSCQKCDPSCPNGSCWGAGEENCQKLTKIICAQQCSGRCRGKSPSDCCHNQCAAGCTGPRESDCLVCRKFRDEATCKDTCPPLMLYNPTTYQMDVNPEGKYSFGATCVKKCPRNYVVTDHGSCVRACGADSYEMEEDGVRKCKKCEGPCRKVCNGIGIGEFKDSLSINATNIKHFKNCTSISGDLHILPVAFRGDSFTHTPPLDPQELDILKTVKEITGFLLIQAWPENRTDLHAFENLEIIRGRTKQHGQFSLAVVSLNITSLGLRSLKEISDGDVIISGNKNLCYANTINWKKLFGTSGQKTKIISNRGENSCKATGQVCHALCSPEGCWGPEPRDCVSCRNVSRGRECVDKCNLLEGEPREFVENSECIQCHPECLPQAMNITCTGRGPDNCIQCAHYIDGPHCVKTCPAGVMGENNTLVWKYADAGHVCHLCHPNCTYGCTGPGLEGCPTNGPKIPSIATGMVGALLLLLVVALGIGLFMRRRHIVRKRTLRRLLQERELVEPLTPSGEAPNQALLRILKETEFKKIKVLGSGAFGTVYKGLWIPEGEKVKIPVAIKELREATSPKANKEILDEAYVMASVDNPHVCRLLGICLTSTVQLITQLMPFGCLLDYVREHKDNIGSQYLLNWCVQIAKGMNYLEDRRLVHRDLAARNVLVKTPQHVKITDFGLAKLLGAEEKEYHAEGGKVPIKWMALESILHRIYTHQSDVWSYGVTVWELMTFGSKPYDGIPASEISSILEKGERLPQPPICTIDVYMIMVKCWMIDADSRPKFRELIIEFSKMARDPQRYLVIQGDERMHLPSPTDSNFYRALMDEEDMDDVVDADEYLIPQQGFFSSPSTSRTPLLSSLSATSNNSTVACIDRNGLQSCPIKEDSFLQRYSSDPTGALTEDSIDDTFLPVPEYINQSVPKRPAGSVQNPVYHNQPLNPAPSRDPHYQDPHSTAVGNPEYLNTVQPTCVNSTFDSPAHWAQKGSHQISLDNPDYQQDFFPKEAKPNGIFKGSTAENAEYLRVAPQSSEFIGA

Key:
[1] = test system: EGFR ex20ins mutant NSCLC that progressed after prior amivantamab; test: Phase 2b REZILIENT1 module C, antitumor activity; conditions: 100 mg BID
[2] = test system: LXF 2478 and NCI-H1975 EGFR D770_N771insSVD cells; test: Mechanism in NSCLC cells with EGFR exon 20 insertions
[3] = Phase 2b REZILIENT1 module C, safety; conditions: 45 patients, 100 mg BID
[4] = test system: advanced EGFR ex20ins mutant NSCLC after prior amivantamab; test: Study in patients who received prior amivantamab (January 2024), anti-tumor activity
[5] = test system: EGFRs harboring T790M and exon 18 or exon 21 mutations (G719A+T790M, L861Q+T790M); conditions: cited from earlier work
skin tissue with WT EGFR = test: Effect on skin tissue with WT EGFR; conditions: in vivo
[6] = test system: NIH/3T3 EGFR H773_V774insNPH; test: NIH/3T3 EGFR H773_V774insNPH allograft, TAS6417 and/or CBDCA/pemetrexed; conditions: for Tumor volume: mean
H1975insSVD = H1975insSVD xenograft, TAS6417 and/or carboplatin; conditions: for Tumor volume: mean ± SE
NCI-H23 cells = test: Growth inhibition of KRAS mutant cell line NCI-H23
NCI-H460 cells = test: Growth inhibition of KRAS mutant cell line NCI-H460
[7] = Phase 1/2a study, pharmacokinetics (plasma); conditions: for AUCLST / AUCTAU / Cmax / T1/2: GM; for Tmax: median
[8] = test system: recurrent or metastatic NSCLC harboring EGFR ex20ins mutations; conditions: after prior platinum-containing chemotherapy (JCO 2023); cited from earlier work
WT EGFR = WT EGFR (Homo sapiens, UniProt P00533); test: Cell-based inhibition of phosphorylation of WT EGFR; conditions: cell-based assay
[9] = test system: mutant EGFRs with in-frame insertion mutations in exon 20; test: Cell-based inhibition of phosphorylation of mutant EGFRs with exon 20 insertions; conditions: A763_Y764insFQEA, V769_D770insASV, D770_N771insG, D770_N771insSVD, H773_V774insNPH, H773_V774insPH
[10] = test system: EGFR mutants that harbor an exon 20 insertion mutation; conditions: biochemical assay; cited from earlier work
[11] = Study in patients who received prior amivantamab (January 2024), safety
[12] = test system: phosphorylation of EGFR and its downstream effectors in human lung cancer xenografts harboring EGFR exon 20 insertions; test: Pharmacodynamic marker analysis in human lung cancer xenografts; conditions: human lung cancer xenografts with EGFR ex20ins
[13] = test system: NCI-H1975 EGFR D770_N771insSVD (H1975insSVD); test: H1975insSVD xenograft after recurrence on amivantamab; conditions: TAS6417 200 mg/kg daily p.o., amivantamab-relapsed tumors
[14] = test system: tumors expressing EGFR with G719A+T790M mutations; test: In vivo antitumor efficacy, subcutaneous tumors expressing EGFR G719A+T790M; conditions: nude mouse
[15] = multiple dose C1D15, 100 mg BID
[16] = multiple dose C1D15, 150 mg BID

Structure (SMILES): C=CC(=O)N[C@H]1C=C(C)c2c(-c3cnc4ccccc4c3)c3c(N)ncnc3n2C1
- Median PFS [1]: 9.7 months
- Disease control rate (CR+PR+SD) ([1]; 30 evaluable patients): 90%
- ORR ([1]; 30 evaluable patients): 40%
- Caspase 3/7 [2]: induction of caspase 3/7
- Growth of NSCLC cells with EGFR exon 20 insertions [2]: suppressed the growth
- Phosphorylation of EGFR and its downstream molecules [2]: inhibition of the phosphorylation of EGFR and its downstream molecules
- Grade 3 TRAE anemia [3]: 4
- Grade 3 TRAE pneumonitis/ILD [3]: 3
- Grade 3 TRAE rash [3]: 3
- Grade 4 or 5 TRAEs [3]: no grade 4 or 5 TRAEs
- TRAE anemia [3]: 24%
- TRAE dermatitis acneiform [3]: 16%
- TRAE nausea [3]: 16%
- TRAE paronychia [3]: 36%
- TRAE rash [3]: 38%
- TRAE stomatitis [3]: 11%
- Unconfirmed partial response (uPR) ([4]; 18 evaluable patients): 1 (5.6%)
- Median progression-free survival ([4]; human, in vivo): not yet estimable
- Efficacy vs patients that progressed after platinum-based chemotherapy ([4]; prior amivantamab): efficacy similar to that of patients that progressed after platinum-based chemotherapy
- Inhibition of EGFRs with T790M + exon 18 or 21 mutation [5]: intensive inhibition
- Effect on skin tissue with WT EGFR (skin tissue with WT EGFR): spares skin tissue with WT EGFR
- Tumor volume ([6]; Day 0, TAS6417 50 mg/kg/day p.o.): 150.4 mm^3
- Tumor volume ([6]; Day 0, TAS6417 100 mg/kg/day p.o.): 154.5 mm^3
- Tumor volume ([6]; Day 8, TAS6417 50 mg/kg/day p.o.): 265.0 mm^3
- Tumor volume ([6]; Day 8, TAS6417 100 mg/kg/day p.o.): 199.5 mm^3
- Tumor volume after 8 days ([6]; alone or in combination with CBDCA/pemetrexed): dramatically smaller tumor volume after 8 days
- Tumor volume (H1975insSVD; Day 1, TAS6417 100 mg/kg/day po qd): 201.8 ± 91. mm^3
- Tumor volume (H1975insSVD; Day 1, TAS6417 200 mg/kg/day po qd): 200.1 ± 8.8 mm^3
- Tumor volume (H1975insSVD; Day 15, TAS6417 100 mg/kg/day po qd): 409.5 ± 45.8 mm^3
- Tumor volume (H1975insSVD; Day 15, TAS6417 200 mg/kg/day po qd): 131.4 ± 18.2 mm^3
- Tumor volume after 15 days (H1975insSVD; alone or in combination with carboplatin): dramatically smaller tumor volume after 15 days
- GI50 (NCI-H23 cells): > 3 µM
- GI50 (NCI-H460 cells): > 3 µM
- Dose dependence of Cmax and AUC ([7]; 30-150 mg BID): increased in a dose-related manner
- Accumulation ([7]; after 14 days): No notable accumulation
- Median time to Cmax (Tmax) ([7]; fasting, C1D1 or C1D15): 0.5 to 1.5 h
- AUCLST ([7]; first dose C1D1, 30 mg BID): 4,030 ng·h/mL
- AUCTAU ([7]; first dose C1D1, 30 mg BID): 5,538 ng·h/mL
- Cmax ([7]; first dose C1D1, 30 mg BID): 969 ng/mL
- T1/2 ([7]; first dose C1D1, 30 mg BID): 3.34 h
- Tmax ([7]; first dose C1D1, 30 mg BID): 1.5 h
- AUCLST ([7]; first dose C1D1, 45 mg BID): 10,151 ng·h/mL
- Cmax ([7]; first dose C1D1, 45 mg BID): 2,697 Ng/mL
- T1/2 ([7]; first dose C1D1, 45 mg BID): 4.18 h
- Tmax ([7]; first dose C1D1, 45 mg BID): 1 h
- AUCLST ([7]; first dose C1D1, 65 mg BID): 10,674 ng·h/mL
- AUCTAU ([7]; first dose C1D1, 65 mg BID): 11,115 ng·h/mL
- Cmax ([7]; first dose C1D1, 65 mg BID): 2,552 Ng/mL
- T1/2 ([7]; first dose C1D1, 65 mg BID): 4.02 h
- Tmax ([7]; first dose C1D1, 65 mg BID): 1 h
- AUCLST ([7]; first dose C1D1, 100 mg BID): 12,036 ng·h/mL
- AUCTAU ([7]; first dose C1D1, 100 mg BID): 13,674 ng·h/mL
- Cmax ([7]; first dose C1D1, 100 mg BID): 3,330 Ng/mL
- T1/2 ([7]; first dose C1D1, 100 mg BID): 3.67 h
- Tmax ([7]; first dose C1D1, 100 mg BID): 0.5 h
- AUCLST ([7]; first dose C1D1, 150 mg BID): 20,581 ng·h/mL
- AUCTAU ([7]; first dose C1D1, 150 mg BID): 23,713 ng·h/mL
- Cmax ([7]; first dose C1D1, 150 mg BID): 4,788 Ng/mL
- T1/2 ([7]; first dose C1D1, 150 mg BID): 3.34 h
- Tmax ([7]; first dose C1D1, 150 mg BID): 1 h
- AUCLST ([7]; multiple dose C1D15, 30 mg BID): 5,280 ng.h/mL
- AUCTAU ([7]; multiple dose C1D15, 30 mg BID): 6,476 ng.h/mL
- Cmax ([7]; multiple dose C1D15, 30 mg BID): 1,364 Ng/mL
- Tmax ([7]; multiple dose C1D15, 30 mg BID): 1 h
- AUCLST ([7]; multiple dose C1D15, 45 mg BID): 11,053 ng.h/mL
- AUCTAU ([7]; multiple dose C1D15, 45 mg BID): 12,894 ng.h/mL
- Cmax ([7]; multiple dose C1D15, 45 mg BID): 3,089 Ng/mL
- T1/2 ([7]; multiple dose C1D15, 45 mg BID): 4.29 h
- Tmax ([7]; multiple dose C1D15, 45 mg BID): 1 h
- AUCLST ([7]; multiple dose C1D15, 65 mg BID): 10,433 ng.h/mL
- AUCTAU ([7]; multiple dose C1D15, 65 mg BID): 12,380 ng.h/mL
- Cmax ([7]; multiple dose C1D15, 65 mg BID): 2,190 Ng/mL
- T1/2 ([7]; multiple dose C1D15, 65 mg BID): 4.28 h
- Tmax ([7]; multiple dose C1D15, 65 mg BID): 2 h
- AUCLST [7, 15]: 13,861 ng.h/mL
- AUCTAU [7, 15]: 15,672 ng.h/mL
- Cmax [7, 15]: 3,827 Ng/mL
- T1/2 [7, 15]: 4.24 h
- Tmax [7, 15]: 0.5 h
- AUCLST [7, 16]: 24,309 ng.h/mL
- AUCTAU [7, 16]: 28,326 ng.h/mL
- Cmax [7, 16]: 5,581 Ng/mL
- T1/2 [7, 16]: 3.89 h
- Tmax [7, 16]: 0.5 h
- Elimination half-life ([7]; repeat BID dosing for 14 days): 3 to 4 h
- Confirmed objective response rate (ORR) [8]: 41%
- Inhibition of WT EGFR (WT EGFR): moderate inhibition
- Inhibition of phosphorylation of mutant EGFRs [9]: intensive cellular potency
- Inhibition of in vitro phosphorylation activity [10]: inhibited the in vitro phosphorylation activity
- Treatment-related Grade >3 events, patient with 2 events ([11]; 1 patient): anemia and rash
- Treatment-related Grade >3 events, patient with 4 events ([11]; 1 patient): amylase increase, lymphocyte decrease, hypoxia, and pneumonitis
- Treatment-related Grade >3 events, patients with 1 event ([11]; 4 patients): folliculitis, ILD, hypertension, or rash
- TRAE anemia ([11]; 31 patients): 25.8%
- TRAE folliculitis ([11]; 31 patients): 12.9%
- TRAE paronychia ([11]; 31 patients): 22.6%
- TRAE pruritis ([11]; 31 patients): 12.9%
- TRAE rash ([11]; 31 patients): 38.7%
- TRAE stomatitis ([11]; 31 patients): 12.9%
- Treatment-related Grade >3 Adverse Events ([11]; 31 patients): 6 patients
- Safety profile ([11]; prior amivantamab): manageable safety profile
- Inhibition of phosphorylation of EGFR and downstream effectors in vivo [12]: potent and durable in vivo inhibitory effect
- Reduction in tumor growth vs Amivantamab [13]: significant reduction in tumor growth
- Body weight loss, fecal abnormalities, skin abnormalities [14]: not effected at a cost of body weight loss, fecal abnormalities, or skin abnormalities
- Tumor growth inhibition ([14]; subcutaneous): significant tumor growth inhibition effects in a dose-dependent manner
